According to PMC9502993 (Pharmaceuticals, 2022):

Tested on: HepG2 cells
Experiment: In Vitro Micronuclei Plus assay (flow cytometry)
Details: positive and negative control

## COc1cc2c(c(OC)c1OC)-c1ccc(OC)c(=O)cc1[C@@H](NC(C)=O)CC2 [colchicine]
  genotoxicity by the criteria of OECD guideline 487: fulfilled all criteria
